From PMC10967427, “Polylactic Glycolic Acid-Mediated Delivery of Plectasin Derivative NZ2114 in Staphylococcus epidermidis Biofilms” (Antibiotics, 2024)
In brackets after ≈: the same amount, converted by molar mass.

Columns and labels:
[1] = system: mouse erythrocytes; assay: Hemolysis analysis; type: cell-based; conditions: 128 μg/mL, 8% mouse erythrocytes in 0.9% NaCl, 37 °C, 1 h; mean, n = 3
Protocol: Mouse blood erythrocytes were used to assess the hemolysis of NZ2114 nanoparticles. Mouse erythrocytes were diluted to 8% with 0.9% NaCl, and then an equal volume of different concentrations of nanoparticles was added and mixed, and the samples were incubated at 37 °C for 1 h. After incubation, samples were centrifuged at 1500 rpm for 5 min at 4 °C, and the supernatant was collected and transferred to a 96-well plate for determination. Then, 0.9% NaCl solution and 0.1% tritone X-100 were used as the negative control (A0) and positive control (A100), respectively. Hemolysis was calculated according to Equation (3). (3) Hemolysis %=ANP− A0/A100− A0×100%

[2] = system: HaCaT cells; assay: Cytotoxicity by CCK-8; type: cell-based; conditions: 256 μg/mL, 12 h, CCK-8, absorbance 450 nm; mean, n = 3
Protocol: The cytotoxicity of HaCaT was determined using CCK-8. The method was performed as follows. (1) Cell culture: HaCaT cells at a density of 2.5 × 10^5 cells/mL were inoculated into 96-well cell culture plates and incubated for 24 h (37 °C, 5% CO2, saturated humidity conditions); (2) drug incubation: after removing the medium, an equal volume of NZ2114 nanoparticles was added and incubated for 12 h; (3) CCK-8 incubation: the supernatant was removed, CCK-8 (1/10 dilution) was added and incubated for 2 h, and the absorbance value at 450 nm was detected by a Microplate Reader; (4) cell survival rate was calculated according to Equation (4). (4) Cell survival rate %=ANP/APBS×100%

[3] = Serum stability by RP-HPLC; type: in vitro ADME, mouse; conditions: 37 °C, RP-HPLC UV 280 nm, mean, n = 3
Protocol: Quantification was performed using reversed-phase high performance liquid chromatography (RP-HPLC) (Agilent 1260 Infinity, Santa Clara, CA, USA) with UV absorption detector composition. Stationary phase: Boston Green ODs-AQ (250 mm × 4.6 mm, 5 μm, 120 Å), mobile phase: 0.1% TFA acetonitrile solution; B: 0.1% TFA aqueous solution. The gradient elution conditions were as follows: 0–16 min, 20–45% of mobile phase A; flow rate of 1.0 mL/min; detection wavelength: 280 nm; injection volume: 50 μL. […] The drug concentration in the samples was calculated.
To assess the stability of NZ2114-NPs under physiological conditions, nanoparticles obtained by freeze-drying were resuspended in 1.5 mL of mouse serum at final concentrations of 12.5%, 25% and 50%, incubated at 37 °C for 0, 1, 2, and 4 h and quantified by RP-HPLC [53, 55].

[4] = system: pepsin; assay: Enzymatic resistance, inhibition zone assay after pepsin; type: in vitro ADME; conditions: 2 h, 37 °C, zone inhibition assay against S. epidermidis G4, mean, n = 3
Protocol: (§1) The enzymatic stability of NZ2114 nanoparticles was determined by inhibition zone assay. Free or encapsulated NZ2114 was incubated with trypsin or pepsin for 2 h at 37 °C to determine protease stability. Untreated peptide and buffer alone were used as positive and negative controls, respectively. All assays were performed in triplicate.

[5] = system: trypsin; assay: Enzymatic resistance, inhibition zone assay after trypsin; type: in vitro ADME; conditions: 2 h, 37 °C, zone inhibition assay against S. epidermidis G4, mean, n = 3
Protocol: as §1

[6] = system: Staphylococcus epidermidis ATCC 35984; assay: MIC and MBC, broth microdilution; type: cell-based
Protocol: (§2) The MIC values of NZ2114 nanoparticles were assessed using the broth microdilution method. Briefly, S. epidermidis in the logarithmic growth phase (1 × 10^5 CFU/mL) was incubated with different concentrations of samples for 16 to 20 h at 37 °C.

[7] = system: S. epidermidis ATCC 12228; assay: MIC and MBC, broth microdilution; type: cell-based, Staphylococcus epidermidis
Protocol: as §2

[8] = system: S. epidermidis G11; assay: MIC and MBC, broth microdilution; type: cell-based, Staphylococcus epidermidis
Protocol: as §2

[9] = system: S. epidermidis G4; assay: MIC and MBC, broth microdilution; type: cell-based, Staphylococcus epidermidis
Protocol: as §2

[10] = system: S. epidermidis; assay: MIC, broth microdilution, range over the tested strains; type: cell-based, Staphylococcus epidermidis; conditions: range over the four strains of Table 3
Protocol: as §2

[11] = system: S. epidermidis G4 biofilm; assay: Effect on bacteria in established biofilms, colony counting; type: cell-based, Staphylococcus epidermidis
Protocol: The effect of NZ2114 nanoparticles on the bacteria in the biofilm was determined according to Yang’s method. Briefly, S. epidermidis G4 (1 × 10^8 CFU/mL) was incubated at 37 °C for 24 h, the supernatant was removed and washed with PBS, and different concentrations of NZ2114 or NZ2114-NPs were added and incubated for 12 h, and then colonies were counted.

[12] = system: S. epidermidis G4 biofilm persister; assay: Effect on biofilm persisters, colony counting; type: cell-based, Staphylococcus epidermidis; conditions: 16× MIC, 24 h, after vancomycin (100× MIC) 24 h
Protocol: The antibacterial effect of NZ2114 nanoparticles on the persistent bacteria in the biofilm was determined according to the previous study.

[13] = system: S. epidermidis G4 biofilms; assay: Observation of biofilms by confocal laser scanning microscopy; type: cell-based, Staphylococcus epidermidis; conditions: 16× MIC; untreated biofilm thickness 12.6 µm
Protocol: The effect of NZ2114 on the biofilm and internal bacteria was observed according to the previous study. After NZ2114-NP treatment, samples were incubated with PI and SYTO9 (LIVE/DEAD BacLight Bacterial Viability Kit, ThermoFisher, Shanghai, China) for 15 min and observed by CLSM (Zeiss LSM880, Carl Zeiss, Oberkochen, Germany).

## CC[C@H](C)[C@@H]1NC(=O)[C@H](CO)NC(=O)[C@H](CCCCN)NC(=O)[C@@H]2CSSC[C@@H](C(=O)N[C@@H](Cc3ccc(O)cc3)C(=O)O)NC(=O)[C@H](CCCCN)NC(=O)[C@@H]3CSSC[C@H](NC(=O)[C@H](CCCNC(=N)N)NC(=O)[C@H](CC(C)C)NC(=O)[C@H](CC(=O)O)NC(=O)[C@H](CC(=O)O)NC(=O)[C@H](CCC(=O)O)NC(=O)[C@H](CC(N)=O)NC(=O)[C@H](Cc4c[nH]c5ccccc45)NC(=O)[C@@H]4CCCN4C(=O)CNC(=O)[C@H](CC(N)=O)NC(=O)[C@@H](NC(=O)CNC(=O)[C@H](Cc4ccccc4)NC(=O)CN)CSSC[C@H](NC(=O)[C@H](Cc4ccc(O)cc4)NC(=O)CNC(=O)CNC(=O)[C@H](CCCCN)NC(=O)[C@H](Cc4ccc(O)cc4)NC(=O)CNC(=O)[C@H](CCCCN)NC1=O)C(=O)N[C@@H](C)C(=O)N[C@@H](CCCCN)C(=O)NCC(=O)NCC(=O)N[C@@H](Cc1ccccc1)C(=O)N[C@@H](C(C)C)C(=O)N3)C(=O)N[C@@H](Cc1c[nH]cn1)C(=O)N[C@@H](CC(N)=O)C(=O)N[C@@H](Cc1c[nH]cn1)C(=O)N2 [NZ2114]
[1]
  Hemolysis rate: 0.67%
[2]
  Survival rate of HaCaT cells: 80.78%
[3]; 12.5% mouse serum, 1 h
  Peptide retention in 12.5% serum, 1 h: 97.64%
[3]; 12.5% mouse serum, 4 h
  Peptide retention in 12.5% serum, 4 h: 84.34%
[3]; 25% mouse serum, 1 h
  Peptide retention in 25% serum, 1 h: 96.85%
[3]; 25% mouse serum, 4 h
  Peptide retention in 25% serum, 4 h: 65.69%
[3]; 50% mouse serum, 1 h
  Peptide retention in 50% serum, 1 h: 90.59%
[3]; 50% mouse serum, 4 h
  Peptide retention in 50% serum, 4 h: 59.83%
[4]
  Retained antimicrobial activity after pepsin: 93%
[5]
  Retained antimicrobial activity after trypsin: 18%
[6]; Staphylococcus epidermidis ATCC 35984, 1 × 10^5 CFU/mL, 16 to 20 h, 37 °C
  MIC: 8 µg/mL (≈ 1.81 µM)
[6]; Staphylococcus epidermidis ATCC 35984, lowest concentration killing 99% of the bacteria
  MBC: 16 µg/mL (≈ 3.63 µM)
[7]; S. epidermidis ATCC 12228, 1 × 10^5 CFU/mL, 16 to 20 h, 37 °C
  MIC: 2 µg/mL (≈ 0.453 µM)
[7]; S. epidermidis ATCC 12228, lowest concentration killing 99% of the bacteria
  MBC: 4 µg/mL (≈ 0.907 µM)
[8]; S. epidermidis G11, 1 × 10^5 CFU/mL, 16 to 20 h, 37 °C
  MIC: 4 µg/mL (≈ 0.907 µM)
[8]; S. epidermidis G11, lowest concentration killing 99% of the bacteria
  MBC: 32 µg/mL (≈ 7.25 µM)
[9]; S. epidermidis G4, 1 × 10^5 CFU/mL, 16 to 20 h, 37 °C
  MIC: 2 µg/mL (≈ 0.453 µM)
[9]; S. epidermidis G4, lowest concentration killing 99% of the bacteria
  MBC: 16 µg/mL (≈ 3.63 µM)
[10]
  MIC against S. epidermidis: 2 to 8 µg/mL
[11]; S. epidermidis G4 24 h biofilm, 1-128× MIC, 12 h treatment, colony counting, n = 3
  Decrease of colony number of bacteria in biofilm: 0.578 to 6.27 lg
[11]; range over the tested concentrations
  Bactericidal rate against S. epidermidis G4 in mature biofilm: 6–65%
[12]
  Number of persistent bacteria after treatment: 1.04 × 10^4 CFU/mL
[13]
  Biofilm by CLSM (SYTO-9 / PI): flocculent biofilm almost disappeared
